Earlier results in paper PMC3124071 (Journal of medicinal chemistry, 2011).

Test system: hURAT1
Conditions: read-out: IC50 via MDCK-hURAT1; MDCK-hURAT1 ref 29; cited from earlier work

In the case of `CCc1oc2cc(O)ccc2c1C(=O)c1cc(Br)c(O)c(Br)c1` [Compound 8, (3,5-dibromo-4-hydroxyphenyl)(2-ethyl-6-hydroxy-benzofuran-3-yl)methanone], the IC50 is given as 0.2 µM.
